Curated experimental data: logP (octanol/water) values

logP is the log10 of the octanol-water partition coefficient; higher is more lipophilic.
The databases behind each value are named after "via".

structure (SMILES)	log Kow	via
C/C=C/C(=O)C(C)CC (stereo partly drawn)	2.28	eChemPortal
CC(C)CCOC(=O)c1ccccc1O	4.78	eChemPortal
O=C1NCCCN1	-0.97	eChemPortal
CCC1(C)Nc2cccc3cccc(c23)N1	2.61	eChemPortal
CCCCOC(=O)NC1CCC(CC2CCC(NC(=O)OCCCC)CC2)CC1 (stereo not given)	5.5	eChemPortal
CCCCCOC(=O)c1cc(=O)[nH]c(=O)[nH]1	1.62	OCHEM
CCN[P+]([O-])(OCC)O/N=C(/C#N)c1ccc(OC)cc1 (stereo partly drawn)	2.39	OCHEM
CCN(CCNS(C)(=O)=O)c1ccc(N)c(C)c1.CCN(CCNS(C)(=O)=O)c1ccc(N)c(C)c1.O=S(=O)(O)O.O=S(=O)(O)O.O=S(=O)(O)O	-5.1	eChemPortal
ClC(COCC(Cl)C(Cl)(Cl)Cl)C(Cl)(Cl)Cl (stereo not given)	5.3	OCHEM
CCCCNS(=O)(=O)c1ccccc1	2.01	eChemPortal
CNCC[N@@](C)CCN	-0.92	OCHEM
COC(=O)c1ccc(C)c(N)c1	1.7	eChemPortal
O=C1C=CC(=O)N1c1ccc(Cc2ccc(N3C(=O)C=CC3=O)cc2)cc1	1.91	OCHEM, eChemPortal
O=S(=O)(O)CCN1CCN(CCO)CC1	-3.85	eChemPortal
CC(C)C(=O)C(C(O)=Nc1ccccc1)C(C(=O)c1ccc(F)cc1)c1ccccc1 (stereo not given)	4.656	eChemPortal
CCCCCCCCCCOS(=O)(=O)[O-].[Na+]	1.72	eChemPortal
CCCCCc1ccc2c(c1)C(=O)c1ccccc1C2=O	5.59	OCHEM
Cc1cn2c(nc1=O)O[C@@H]1[C@@H](O)[C@H](CO)O[C@@H]12	-1.97	eChemPortal
Cc1cc(S(=O)(=O)[O-])ccc1N.[Na+]	0.325	eChemPortal
ClC1=C(Cl)[C@@]2(Cl)C(Cl)=C(Cl)[C@@H]3C[C@H]2[C@H]1[C@H]3Cl	5.44	OCHEM
Cc1cc(C)c(O)c(C(C)(C)C)c1	4.08	OCHEM
C[Si](C)(C)O[Si](C)(C)O[Si](C)(C)O[Si](C)(C)O[Si](C)(C)O[Si](C)(C)O[Si](C)(C)C	7.2	OCHEM
CCCCN(C=O)CCCC	2	eChemPortal
CCCCCCCC/C=C\CCCCCCCC(=O)NCCOCCO	6.86	eChemPortal
Nc1nc2ccc(S(=O)(=O)[O-])cc2s1.[Li+]	1	eChemPortal
CC(CC(=O)c1ccc(-c2ccccc2)cc1)C(=O)O (stereo not given)	3.4	OCHEM
O=CCC=O	-1.16	PubChem
C[C@H]1CC[C@@]2(O)C(C)(C)[C@@H]3CC[C@@]2(C)[C@H]1C3	5.5	eChemPortal
O=C1N=C(O)C2=C1CCCC2	1.48	eChemPortal
CCC(C)(C)c1ccccc1	4.95	eChemPortal
CN(C(=O)N(C)c1ccccc1)c1ccccc1	2.82	eChemPortal
CC1CCS(=O)(=O)C1 (stereo not given)	-0.4	eChemPortal
CC(C)(C)c1ccc(OCC2CO2)cc1 (stereo not given)	3.59	eChemPortal
FC(F)=C(F)OC(F)(F)C(F)(F)C(F)(F)F	4	eChemPortal
CCn1c(O)c(/N=N/c2cc(Nc3nc(Cl)nc(Nc4ccc(S(=O)(=O)CCOS(=O)(=O)[O-])cc4)n3)ccc2S(=O)(=O)[O-])c(C)c(C(N)=O)c1=O.[Na+].[Na+]	-6	eChemPortal
N#Cc1ccc(C=Cc2ccc(C=Cc3cccc(C#N)c3)cc2)cc1	4.8	eChemPortal
Cc1ccc2nc(-c3ccc(NC(=O)/C(C#N)=C/c4ccc(N(C)CCS(=O)(=O)[O-])cc4)cc3)sc2c1S(=O)(=O)[O-].[Na+].[Na+]	-4.02	eChemPortal
C[Si](C)(C)O[Si](C)(C)O[Si](C)(C)O[Si](C)(C)O[Si](C)(C)C	9.415	PubChem, eChemPortal
CC(C)COCC(CN(Cc1ccccc1)c1ccccc1)N1CCCC1 (stereo not given)	5.2	PubChem
C1=CCCC2OC2CCC=CCC1 (stereo not given)	3.39	eChemPortal
CC(O)COc1ccc(C(C)(C)c2ccc(OCC(C)O)cc2)cc1 (stereo not given)	3.5	eChemPortal
CCCCCCCCCN	3.57	OCHEM
O=CC1CCCSC1 (stereo not given)	1.44	eChemPortal
C/C=C/C1CCC(C2CCC(CCC)CC2)CC1 (stereo partly drawn)	6.4	eChemPortal
CC(=O)CC(=O)Nc1ccccc1	0.93	eChemPortal
CSSSC	1.94	PubChem
CS(=O)(=O)O.CS(=O)(=O)O.Nc1c(N)n2n(c1=O)CCC2	-2.8	eChemPortal
CC(C)(C)C(CCC(=O)O)CC(=O)O (stereo not given)	1.59	eChemPortal
C[C@H](CCC(=O)O)[C@H]1CC[C@H]2[C@@H]3C[C@H](O)[C@@H]4C[C@H](O)CC[C@]4(C)[C@H]3CC[C@]12C	3.08	OCHEM, PubChem
C=Cc1cccc(C=C)c1	4.15	OCHEM
C=CCOC(=O)/C=C/c1ccccc1	3.4	eChemPortal
C=CCOC(=O)COc1ccccc1	2.33	eChemPortal
CCCCCCCCC(=O)N(C)C	3.27	eChemPortal

The last 4 entries again:

structure (SMILES)	log Kow	via
C=Cc1cccc(C=C)c1	4.15	OCHEM
C=CCOC(=O)/C=C/c1ccccc1	3.4	eChemPortal
C=CCOC(=O)COc1ccccc1	2.33	eChemPortal
CCCCCCCCC(=O)N(C)C	3.27	eChemPortal

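The numbers are reported measurements, compiled and curated for the OPERA QSAR suite. One number stands for a compound and property, with no spread given. Conditions of the individual experiments are not part of the data. A value may pool stereoisomers or salt forms, and the file does not say which form was measured. Unmarked limits or estimates from the upstream databases cannot be ruled out.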

Source: data files of OPERA 2.9 (Mansouri et al.), github.com/kmansouri/OPERA.